The source of these data is US20220380444A1.

The assay has as its target human complement protein C5 (human) (UniProt P01031). Briefly: cell-based or functional assay.

“Crovalimab (original name SKY59) (antibody)” came in with a 50% Inhibitory Dose, classical pathway haemolysis assay of 212 ng/mL and a Haemolytic Units (HU), classical pathway haemolysis assay of 49.9 HU.
